The source made the active and inactive calls. The calls are words filed in the database; no cut-off is given here.
Key:
[1] = target: T1, ATP-dependent Clp protease proteolytic subunit, mitochondrial (Homo sapiens, UniProt Q16740); assay: Activation of human ClpP using FITC-casein as substrate assessed as increase in proteolytic activity at 100 uM preincubated for 15 mins followed by substrate addition and measured after 60 mins by fluorescence based analysis relative to ONC201; details: filed as activator, time 75.0 min
[2] = target: T1, ATP-dependent Clp protease proteolytic subunit, mitochondrial; assay: Activation of human ClpP in human SU-DIPG-XXXVI cells assessed as induction of ClpX displacement from peptidase component by measuring decrease in ClpX protein level by Western blot analysis; type: cell-based; details: filed as activator
[3] = target: T1, ATP-dependent Clp protease proteolytic subunit, mitochondrial; assay: Activation of human ClpP in human SU-DIPG-XXXVI cells assessed as decrease in TFAM level incubated for 24 hrs by Western blot analysis; type: cell-based; details: filed as activator
[4] = target: T1, ATP-dependent Clp protease proteolytic subunit, mitochondrial; assay: Activation of human ClpP in human SU-DIPG-XXXVI cells assessed as decrease in mitochondrial respiratory chain complex V subunit ATP5A level by Western blot analysis; type: cell-based; details: filed as activator
[5] = target: T1, ATP-dependent Clp protease proteolytic subunit, mitochondrial; assay: Activation of human ClpP in human SU-DIPG-XXXVI cells assessed as decrease in mitochondrial respiratory chain complex II subunit SDHA level by Western blot analysis; type: cell-based; details: filed as activator
[6] = target: T1, ATP-dependent Clp protease proteolytic subunit, mitochondrial; assay: Activation of human ClpP in human SU-DIPG-XXXVI cells assessed as decrease in mitochondrial DNA complex IV subunit COI level by Western blot analysis; type: cell-based; details: filed as activator
[7] = target: T1, ATP-dependent Clp protease proteolytic subunit, mitochondrial; assay: Activation of human ClpP in human SU-DIPG-XXXVI cells assessed as decrease in NRF1 level incubated for 24 hrs by Western blot analysis; type: cell-based; details: filed as activator

Amino acid sequences for entries named in this document (tags omitted).
UniProt Q16740, whole entry: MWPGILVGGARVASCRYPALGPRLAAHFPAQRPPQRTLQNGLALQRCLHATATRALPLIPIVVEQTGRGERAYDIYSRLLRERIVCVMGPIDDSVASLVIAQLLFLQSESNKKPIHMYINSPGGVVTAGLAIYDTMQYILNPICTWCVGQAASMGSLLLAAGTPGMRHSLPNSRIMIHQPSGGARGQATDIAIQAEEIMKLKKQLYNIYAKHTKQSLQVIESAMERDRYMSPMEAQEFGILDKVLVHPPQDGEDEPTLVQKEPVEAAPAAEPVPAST

| Compound | Activity [1] [%] | other results |
| --- | --- | --- |
| N#Cc1cccc(CN2CCc3[nH]c(=O)n(Cc4ccc(SC(F)(F)F)cc4)c(=O)c3C2)c1 | 76 |  |
| N#Cc1cccc(CN2CCc3[nH]c(=O)n(Cc4ccc([N+](=O)[O-])cc4)c(=O)c3C2)c1 | 87 |  |
| N#Cc1cccc(CN2CCc3[nH]c(=O)n(Cc4ccc(Cl)c(Cl)c4)c(=O)c3C2)c1 | 97 | Activity [2]: Active; Activity [3]: Active; Marked Reduction Observed; Activity [4]: Active; Activity [5]: Active; Activity [6]: Active; Activity [7]: Active; Significant Effect Observed |
| O=c1[nH]c2c(c(=O)n1Cc1ccc(C(F)(F)F)cc1)CN(Cc1cccc(C(F)(F)F)c1)CC2 | 96 |  |
| COc1ccc(Cn2c(=O)[nH]c3c(c2=O)CN(Cc2cccc(C#N)c2)CC3)c(OC)c1 | 76 |  |

The next lines start with results.

| Activity [1] [%] | Compound | other results |
| --- | --- | --- |
| 71 | Cc1ccc(Cn2c(=O)[nH]c3c(c2=O)CN(Cc2cccc(C#N)c2)CC3)cc1 |  |
| 44 | N#Cc1cccc(CN2CCc3[nH]c(=O)n(Cc4cc(C(F)(F)F)cc(C(F)(F)F)c4)c(=O)c3C2)c1 |  |
| 84 | O=c1[nH]c2c(c(=O)n1Cc1ccc(C(F)(F)F)cc1)CN(Cc1cccc([N+](=O)[O-])c1)CC2 |  |
| 100 | O=c1[nH]c2c(c(=O)n1Cc1ccc(C(F)(F)F)cc1)CN(Cc1cccc(Cl)c1)CC2 |  |
| 71 | COc1cccc(CN2CCc3[nH]c(=O)n(Cc4ccc(C(F)(F)F)cc4)c(=O)c3C2)c1 |  |
| 93 | N#Cc1cccc(CN2CCc3[nH]c(=O)n(Cc4cc(C(F)(F)F)ccc4Cl)c(=O)c3C2)c1 |  |
| 90 | N#Cc1cccc(CN2CCc3[nH]c(=O)n(Cc4ccc(Cl)cc4)c(=O)c3C2)c1 |  |
| 100 | N#Cc1cccc(CN2CCc3[nH]c(=O)n(Cc4ccc(C(F)(F)F)cc4)c(=O)c3C2)c1 |  |
